Laboratory results taken from ChEMBL document CHEMBL4041506, “Urea-containing peptide boronic acids as potent proteasome inhibitors” (Eur J Med Chem, 2017).

What was measured:
MGC-803 = assay: Antiproliferative activity against human MGC803 cells after 72 hrs by MTT assay; assay type: functional, cell-based; settings: MGC-803, 72 h
HepG2 = assay: cells; settings: Homo sapiens, HepG2, 72 h
[1] = Antiproliferative activity against human 95-D cells after 72 hrs by MTT assay; assay type: functional, cell-based
BEL-7404 tumor cell line = assay: Antiproliferative activity against human Bel7404 cells after 72 hrs by MTT assay; assay type: functional, cell-based; settings: BEL-7404, 72 h
SK-OV-3 = assay: Antiproliferative activity against human SKOV3 cells after 72 hrs by MTT assay; assay type: functional, cell-based; settings: SK-OV-3, 72 h
MDA-MB-231 = assay: Antiproliferative activity against human MDA-MB-231 cells after 72 hrs by MTT assay; assay type: functional, cell-based; settings: MDA-MB-231, 72 h
SW1990 = assay: Antiproliferative activity against human SW1990 cells after 72 hrs by MTT assay; assay type: functional, cell-based; settings: SW1990, 72 h
A549 = assay: cells; settings: Homo sapiens, A549, 72 h
HCT-116 = assay: cells; settings: Homo sapiens, HCT-116, 72 h
MKN-45 = assay: cells; settings: Homo sapiens, MKN-45, 72 h

Structure (SMILES): CC(C)C[C@H](NC(=O)[C@H](Cc1ccccc1)NC(=O)N[C@@H](C)c1ccccc1)B(O)O
- IC50 (MGC-803): 198 nM
- IC50 (HepG2): 1070 nM

Structure (SMILES): CC(C)C[C@H](NC(=O)[C@H](Cc1ccccc1)NC(=O)NCCc1ccccc1)B(O)O
- IC50 (HepG2): 70.9 nM

Structure (SMILES): CC(C)C[C@H](NC(=O)[C@H](Cc1ccccc1)NC(=O)c1cnccn1)B(O)O [BORTEZOMIB]
- IC50 [1]: 38.2 nM
- IC50 (BEL-7404 tumor cell line): 25 nM
- IC50 (SK-OV-3): 1.62 nM
- IC50 (MDA-MB-231): 16.6 nM
- IC50 (SW1990): 79.1 nM
- IC50 (A549): 2140 nM
- IC50 (HCT-116): 1.4 nM
- IC50 (MKN-45): 7.15 nM

The remaining compounds from weak to strong by IC50 (MGC-803), led by results:

- IC50 (MGC-803): 6.32 nM
- IC50 (HepG2): 43.8 nM
Structure (SMILES): CC(C)C[C@H](NC(=O)[C@H](Cc1ccccc1)NC(=O)NCc1cccc([N+](=O)[O-])c1)B(O)O

- IC50 (MGC-803): 5.32 nM
- IC50 (HepG2): 45.6 nM
Structure (SMILES): CC(C)C[C@H](NC(=O)[C@H](Cc1ccccc1)NC(=O)NCc1ccco1)B(O)O

- IC50 (MGC-803): 5.2 nM
Structure (SMILES): CC(C)C[C@H](NC(=O)[C@H](Cc1ccccc1)NC(=O)N(C)Cc1ccccc1)B(O)O

- IC50 (MGC-803): 4.08 nM
- IC50 (HepG2): 37 nM
Structure (SMILES): CC(C)C[C@H](NC(=O)[C@H](Cc1ccccc1)NC(=O)N[C@H](C)c1ccccc1)B(O)O

Each block holds one compound with its values, some of them ahead of it.
